The experiment concerns the target SbSOMT (stilbene O-methyltransferase) (Sorghum bicolor, UniProt A0A1B6PFV1). Description: biochemical. Also on record: gene SORBI_3007G059100.

Amino acid sequences for entries named in this document (tags omitted). Residues count along the entry.
UniProt A0A1B6PFV1, 2-377: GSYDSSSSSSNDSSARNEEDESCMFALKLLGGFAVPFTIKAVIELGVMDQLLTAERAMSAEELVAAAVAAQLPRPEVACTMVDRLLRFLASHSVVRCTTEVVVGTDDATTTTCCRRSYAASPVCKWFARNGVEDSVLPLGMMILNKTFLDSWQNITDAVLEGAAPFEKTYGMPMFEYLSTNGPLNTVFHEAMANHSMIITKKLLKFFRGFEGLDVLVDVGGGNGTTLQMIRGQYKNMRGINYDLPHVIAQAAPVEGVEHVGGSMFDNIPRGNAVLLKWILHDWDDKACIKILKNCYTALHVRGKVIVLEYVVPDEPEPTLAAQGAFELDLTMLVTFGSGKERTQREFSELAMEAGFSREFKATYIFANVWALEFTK

Structures are written as SMILES.

1 compound from article PMC10261104, “Regioselective stilbene O-methylations in Saccharinae grasses” (Nature Communications, 2023) can be followed below.

What is called Kd is the concentration at which binding is half-saturated. Low readings indicate tighter binding, high ones weaker binding.

For `Oc1cc(O)cc(/C=C/c2ccc(O)c(O)c2)c1` [piceatannol], the dissociation constant Kd stood at 37.5 µM.
